Tested on: Liver
Test: Antioxidant activity against FeSO4-induced lipid peroxidation in rat liver homogenate assessed as inhibition of malondialdehyde release after 1 hr by thiobarbituric acid assay
Type: functional, tissue-based

Compound	Activity
COc1cc([C@@H]2Oc3cc(OC)c(O)c(OC)c3C(=O)[C@@H]2O)ccc1O (racemic)	Dose-dependent effect
COc1cc([C@H]2Oc3cc(OC)c(OC)c(OC)c3C(=O)[C@@H]2O)ccc1O (racemic)	Dose-dependent effect
